In publication PMC13507320 one finds fold slowdown of β1 tail diffusion against β1 tails alone data, which are given here for one substance.

In experiment [1] the target is Atto643-labeled his6-β1 integrin cytoplasmic tail peptide. The experiment can be described thus: FRAP of the tethered partner on supported lipid bilayers (slowdown of diffusion); his6-β1 tails tethered to DGS-NTA-Ni on 5% PIP3 supported lipid bilayer; 1 μM kindlin or 1 μM talin, 30-min incubation; HEPES buffer pH 7.4, 150 mM KCl, 2.5 μM ZnCl2; t1/2_fast against β1 tails alone.

Experiment [2] shares this target. Nature of the experiment: FRAP of the tethered partner on supported lipid bilayers (slowdown of diffusion); his6-β1 tails tethered to DGS-NTA-Ni on 5% PIP2 supported lipid bilayer; 1 μM kindlin or 1 μM talin, 30-min incubation; HEPES buffer pH 7.4, 150 mM KCl, 2.5 μM ZnCl2; t1/2_fast against β1 tails alone.

His-tagged talin-1, Q9Y490 1-2541: the figures for the fold slowdown of β1 tail diffusion against β1 tails alone in experiment [1] and in experiment [2] were 1.8 times and 2.3 times, respectively.
